Target: recombinant human HDAC2 (Homo sapiens, UniProt Q92769)
Assay: HDAC2 fluorogenic inhibition assay

By UniProt entry, the sequences of proteins in these tests, tags left out.
UniProt Q92769, whole entry: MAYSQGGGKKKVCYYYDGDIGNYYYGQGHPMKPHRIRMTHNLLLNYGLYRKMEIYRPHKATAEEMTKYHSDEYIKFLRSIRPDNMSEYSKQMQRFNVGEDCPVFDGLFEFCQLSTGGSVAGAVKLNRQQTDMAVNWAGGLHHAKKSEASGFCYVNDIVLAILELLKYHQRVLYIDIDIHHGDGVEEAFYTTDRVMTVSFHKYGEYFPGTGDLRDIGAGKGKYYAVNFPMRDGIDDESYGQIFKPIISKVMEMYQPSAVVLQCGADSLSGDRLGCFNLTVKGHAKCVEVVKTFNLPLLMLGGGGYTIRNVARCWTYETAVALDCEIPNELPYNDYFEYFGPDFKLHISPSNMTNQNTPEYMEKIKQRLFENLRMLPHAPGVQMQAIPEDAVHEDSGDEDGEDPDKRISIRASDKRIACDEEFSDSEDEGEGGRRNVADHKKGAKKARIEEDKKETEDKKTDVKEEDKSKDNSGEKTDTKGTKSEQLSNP

IC50 [nM]	SMILES
300	[N-]=[N+]=NCc1cc(COC(=O)NCc2ccc(C(=O)Nc3cc(-c4ccccc4)ccc3N)cc2)cc(N=[N+]=[N-])c1 [2b]
350	[N-]=[N+]=NCc1cc(COC(=O)NCc2ccc(C(=O)Nc3cc(-c4cccs4)ccc3N)cc2)cc(N=[N+]=[N-])c1 [2c]
